Experimental data taken from US20100248265A1, “COMPOSITIONS AND METHODS FOR DIAGNOSIS AND TREATMENT OF CANCER” (The Salk Institute for Biological Studies, priority 2009, published 2010).

Molecular target: mTOR (Homo sapiens, UniProt P42345)
Assay: Western blot for mTOR autophosphorylation at S2481 in cells treated with mTOR kinase inhibitors
Assay type: cell-based
Details: actively growing Hela and MDA-MB-468 cells; 1 h at 37° C.

SMILES: CCC(=O)N1CCN(c2ccc(-n3c(=O)ccc4cnc5ccc(-c6cnc7ccccc7c6)cc5c43)cc2C(F)(F)F)CC1 [Torin1]
- mTOR autophosphorylation at S2481: abolished
